Assay results taken from paper PMC6880876.

Molecular target: end-binding protein 3 (EB3), full-length, recombinant (UniProt Q9UPY8)
Assay: ELISA

Kd: 5.6 nM
Substance: full-length tau V337M (0N4R) (natural protein)
